{"source": "patent US8685916B2", "about": "“Opioid prodrugs with heterocyclic linkers” (Signature Therapeutics, Inc., priority 2011, dated 2014)", "key": {"[1]": {"experiment": "Pharmacokinetics following PO administration of Compound KC-55 to rats", "conditions": "male, Sprague Dawley, rat, plasma, 10 mg/kg"}, "[2]": {"experiment": "Oral administration of Compound KC-55 co-dosed with Compound 109 to rats", "conditions": "male, Sprague Dawley, rat, plasma, 36 umol/kg"}}}
{"smiles": "COc1ccc2c3c1O[C@H]1C(=O)CC[C@@]4(O)[C@@H](C2)N(C)CC[C@]314", "note": "[Oxycodone, oxycodone]", "values": [{"measurement": "Tmax", "setting": "[1]", "result": "37.5 ± 25.8", "unit": "min"}, {"measurement": "Tmax", "setting": "[2]", "result": 37.5, "unit": "min"}]}
